The nature of data set [1]: Transdermal effect test, Franz cell method, cumulative permeation amount. Particulars: 10 wt % supramolecular ionic salt solution, mouse skin.
A further data set deals with melanoma cells (B16). Kind of data set: Cytotoxicity test by melanoma cells (B16). Type of data set: cell-based.

Regarding “supramolecular tranexamic acid-citric acid ionic salt [Comparative Example 1]”, the Permeation amount in data set [1] was found to be 11300 µg. Besides, the “Cell viability (%)” value in the data set with melanoma cells (B16) (0.0006 % m/V) came to 81.32%; with melanoma cells (B16) (0.0012 % m/V) it was 80.58%; in the data set with melanoma cells (B16) (0.002 % m/V), 80.01%; in the data set on melanoma cells (B16) (0.005 % m/V) it was 71.95%; with melanoma cells (B16) (0.010 % m/V), 70.74%; in the data set on melanoma cells (B16) (0.020 % m/V), 72.19%. Also, the “Cell viability (%)” value with melanoma cells (B16) (0.039 % m/V) came out at 75.13%; in the data set with melanoma cells (B16) (0.078 % m/V) it was 75.85%.

Values taken from patent publication US20250388534A1, “SUPRAMOLECULAR TRANEXAMIC ACID-MANDELIC ACID IONIC SALT AS WELL AS PREPARATION METHOD THEREFOR AND USE THEREOF” (SHENZHEN SHINEHIGH INNOVATION CO., LTD., priority 2022, published 2025).
